According to PubChem BioAssay (NCI):
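Dose response: 5 concentrations. Exposure: 48 h. Format: 96-well plates. Endpoint: linear interpolation; highest concentration if not reached. GI50 is the concentration that inhibits growth by half. At the TGI there is no net growth.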

Assays:
Experiment in all cases: growth of human tumour cells (NCI), 48 h; in the data active = GI50 below about 0.43 µM; inactive = the rest
COLO 205 colon = system: COLO 205 colon
CAKI-1 renal = system: CAKI-1 renal
HL-60(TB) leukemia = system: HL-60(TB) leukemia
SNB-78 CNS = system: SNB-78 CNS
HCT-116 colon = system: HCT-116 colon
NCI-H460 lung = system: NCI-H460 lung
HOP-92 NSCLC = system: HOP-92 NSCLC
HOP-18 NSCLC = system: HOP-18 NSCLC
ACHN renal = system: ACHN renal
LOX IMVI melanoma = system: LOX IMVI melanoma
LXFL 529 NSCLC = system: LXFL 529 NSCLC
CCRF-CEM leukemia = system: CCRF-CEM leukemia
SF-268 CNS = system: SF-268 CNS
K-562 leukemia = system: K-562 leukemia
XF 498 CNS = system: XF 498 CNS
SK-MEL-5 melanoma = system: SK-MEL-5 melanoma
SF-539 CNS = system: SF-539 CNS
SF-295 CNS = system: SF-295 CNS
U251 CNS = system: U251 CNS
MOLT-4 leukemia = system: MOLT-4 leukemia
SNB-75 CNS = system: SNB-75 CNS
KM20L2 colon = system: KM20L2 colon
SNB-19 CNS = system: SNB-19 CNS
DMS 273 small cell lung = system: DMS 273 small cell lung
DLD-1 colon = system: DLD-1 colon
OVCAR-3 ovarian = system: OVCAR-3 ovarian
EKVX NSCLC = system: EKVX NSCLC
NCI-H23 lung = system: NCI-H23 lung
KM12 colon = system: KM12 colon
IGROV1 ovarian = system: IGROV1 ovarian
M14 melanoma = system: M14 melanoma
UACC-62 melanoma = system: UACC-62 melanoma
A549 NSCLC = system: A549 NSCLC
SK-MEL-2 melanoma = system: SK-MEL-2 melanoma
OVCAR-5 ovarian = system: OVCAR-5 ovarian
TK-10 renal = system: TK-10 renal
RXF-631 renal = system: RXF-631 renal
MALME-3M melanoma = system: MALME-3M melanoma
UACC-257 melanoma = system: UACC-257 melanoma
NCI-H226 lung = system: NCI-H226 lung
SR leukemia = system: SR leukemia
SK-MEL-28 melanoma = system: SK-MEL-28 melanoma
NCI-H322M lung = system: NCI-H322M lung
786-0 renal = system: 786-0 renal
HT29 colon = system: HT29 colon
OVCAR-4 ovarian = system: OVCAR-4 ovarian
M19-MEL melanoma = system: M19-MEL melanoma
HCT-15 colon = system: HCT-15 colon
UO-31 renal = system: UO-31 renal
SW-620 colon = system: SW-620 colon
DMS 114 small cell lung = system: DMS 114 small cell lung
SK-OV-3 ovarian = system: SK-OV-3 ovarian
RXF 393 renal = system: RXF 393 renal
SN12C renal = system: SN12C renal
A498 renal = system: A498 renal
NCI-H522 lung = system: NCI-H522 lung
HOP-62 NSCLC = system: HOP-62 NSCLC
RPMI-8226 leukemia = system: RPMI-8226 leukemia
OVCAR-8 ovarian = system: OVCAR-8 ovarian
HCC-2998 colon = system: HCC-2998 colon

CCN(CC)C(=O)Oc1ccc(COC(C)=O)nc1
> 100 µM: TGI (COLO 205 colon) | TGI (CAKI-1 renal) | TGI (HL-60(TB) leukemia) | TGI (SNB-78 CNS) | TGI (HCT-116 colon) | TGI (NCI-H460 lung) | TGI (HOP-92 NSCLC) | TGI (HOP-18 NSCLC) | TGI (ACHN renal) | TGI (LOX IMVI melanoma) | TGI (LXFL 529 NSCLC) | TGI (CCRF-CEM leukemia) | TGI (SF-268 CNS) | TGI (K-562 leukemia) | TGI (XF 498 CNS) | TGI (SK-MEL-5 melanoma) | TGI (SF-539 CNS) | TGI (SF-295 CNS) | TGI (U251 CNS) | TGI (MOLT-4 leukemia) | TGI (SNB-75 CNS) | TGI (KM20L2 colon) | TGI (SNB-19 CNS) | TGI (DMS 273 small cell lung) | TGI (DLD-1 colon) | TGI (OVCAR-3 ovarian) | TGI (EKVX NSCLC) | TGI (NCI-H23 lung) | TGI (KM12 colon) | TGI (IGROV1 ovarian) | TGI (M14 melanoma) | TGI (UACC-62 melanoma) | TGI (A549 NSCLC) | TGI (SK-MEL-2 melanoma) | TGI (OVCAR-5 ovarian) | TGI (TK-10 renal) | TGI (RXF-631 renal) | TGI (MALME-3M melanoma) | TGI (UACC-257 melanoma) | TGI (NCI-H226 lung) | TGI (SR leukemia) | TGI (SK-MEL-28 melanoma) | TGI (NCI-H322M lung) | TGI (786-0 renal) | TGI (HT29 colon) | TGI (OVCAR-4 ovarian) | TGI (M19-MEL melanoma) | TGI (HCT-15 colon) | TGI (UO-31 renal) | TGI (SW-620 colon) | TGI (DMS 114 small cell lung) | TGI (SK-OV-3 ovarian) | TGI (RXF 393 renal) | TGI (SN12C renal) | TGI (A498 renal) | TGI (NCI-H522 lung) | TGI (HOP-62 NSCLC)

c1ccc(CNCCNCc2ccccc2)cc1
48.3 µM: TGI (SR leukemia)
93.2 µM: TGI (IGROV1 ovarian)
47.9 µM: TGI (M19-MEL melanoma)
> 100 µM: TGI (HL-60(TB) leukemia) | TGI (SNB-78 CNS) | TGI (HCT-116 colon) | TGI (NCI-H460 lung) | TGI (HOP-92 NSCLC) | TGI (ACHN renal) | TGI (LOX IMVI melanoma) | TGI (LXFL 529 NSCLC) | TGI (K-562 leukemia) | TGI (XF 498 CNS) | TGI (SF-295 CNS) | TGI (U251 CNS) | TGI (OVCAR-8 ovarian) | TGI (SNB-75 CNS) | TGI (KM20L2 colon) | TGI (DMS 273 small cell lung) | TGI (OVCAR-3 ovarian) | TGI (EKVX NSCLC) | TGI (KM12 colon) | TGI (A549 NSCLC) | TGI (OVCAR-5 ovarian) | TGI (TK-10 renal) | TGI (RXF-631 renal) | TGI (UACC-257 melanoma) | TGI (NCI-H226 lung) | TGI (NCI-H322M lung) | TGI (786-0 renal) | TGI (HT29 colon) | TGI (OVCAR-4 ovarian) | TGI (HCT-15 colon) | TGI (HCC-2998 colon) | TGI (UO-31 renal) | TGI (SW-620 colon) | TGI (DMS 114 small cell lung) | TGI (SK-OV-3 ovarian) | TGI (SN12C renal)
44.4 µM: TGI (CAKI-1 renal)
84.6 µM: TGI (UACC-62 melanoma)
76.6 µM: TGI (MALME-3M melanoma)
88 µM: TGI (DLD-1 colon)
44.2 µM: TGI (COLO 205 colon)
64.2 µM: TGI (HOP-62 NSCLC)
active: GI50 (SNB-19 CNS) 0.297 µM
46 µM: TGI (MOLT-4 leukemia)
97.9 µM: TGI (HOP-18 NSCLC)
65.9 µM: TGI (M14 melanoma)
85.1 µM: TGI (SNB-19 CNS)
51.9 µM: TGI (SK-MEL-5 melanoma)
52.6 µM: TGI (SK-MEL-2 melanoma)
72.3 µM: TGI (NCI-H23 lung)
86.7 µM: TGI (SF-268 CNS)
68.5 µM: TGI (RPMI-8226 leukemia) | TGI (A498 renal)
inactive: GI50 (COLO 205 colon) 17.9 µM | GI50 (CAKI-1 renal) 0.456 µM | GI50 (HL-60(TB) leukemia) 53.9 µM | GI50 (SNB-78 CNS) 23.3 µM | GI50 (HCT-116 colon) 18.7 µM | GI50 (NCI-H460 lung) 15.4 µM | GI50 (HOP-92 NSCLC) 43.4 µM | GI50 (HOP-18 NSCLC) 12.9 µM | GI50 (ACHN renal) 16.5 µM | GI50 (LOX IMVI melanoma) 26.1 µM | GI50 (RPMI-8226 leukemia) 26.2 µM | GI50 (LXFL 529 NSCLC) 20.7 µM | GI50 (CCRF-CEM leukemia) 5.19 µM | GI50 (SF-268 CNS) 24.1 µM | GI50 (K-562 leukemia) 24 µM | GI50 (XF 498 CNS) 80.9 µM | GI50 (SK-MEL-5 melanoma) 15.6 µM | GI50 (SF-539 CNS) 23.1 µM | GI50 (SF-295 CNS) 26.9 µM | GI50 (U251 CNS) 18.8 µM | GI50 (MOLT-4 leukemia) 11.4 µM | GI50 (OVCAR-8 ovarian) 24.9 µM | GI50 (SNB-75 CNS) 25.4 µM | GI50 (KM20L2 colon) 23.2 µM | GI50 (DMS 273 small cell lung) 24.5 µM | GI50 (DLD-1 colon) 20.9 µM | GI50 (OVCAR-3 ovarian) 27.6 µM | GI50 (EKVX NSCLC) 27.7 µM | GI50 (NCI-H23 lung) 20.1 µM | GI50 (KM12 colon) 15.5 µM | GI50 (IGROV1 ovarian) 25.6 µM | GI50 (M14 melanoma) 17.1 µM | GI50 (UACC-62 melanoma) 12.5 µM | GI50 (A549 NSCLC) 26.3 µM | GI50 (SK-MEL-2 melanoma) 15.3 µM | GI50 (OVCAR-5 ovarian) 40.8 µM | GI50 (TK-10 renal) 40.6 µM | GI50 (RXF-631 renal) 15.1 µM | GI50 (MALME-3M melanoma) 25.1 µM | GI50 (UACC-257 melanoma) 34.2 µM | GI50 (NCI-H226 lung) 31.7 µM | GI50 (SR leukemia) 14.9 µM | GI50 (SK-MEL-28 melanoma) 3.02 µM | GI50 (NCI-H322M lung) 25.9 µM | GI50 (786-0 renal) 22.4 µM | GI50 (HT29 colon) 32.1 µM | GI50 (OVCAR-4 ovarian) 27.1 µM | GI50 (M19-MEL melanoma) 11.9 µM | GI50 (HCT-15 colon) 20.2 µM | GI50 (HCC-2998 colon) 30.8 µM | GI50 (UO-31 renal) 30.4 µM | GI50 (SW-620 colon) 24.1 µM | GI50 (DMS 114 small cell lung) 31.8 µM | GI50 (SK-OV-3 ovarian) 23.2 µM | GI50 (RXF 393 renal) 26.7 µM | GI50 (SN12C renal) 25 µM | GI50 (A498 renal) 24.4 µM | GI50 (NCI-H522 lung) 20.1 µM | GI50 (HOP-62 NSCLC) 18.3 µM
74.9 µM: TGI (SF-539 CNS)
79.6 µM: TGI (CCRF-CEM leukemia)
81 µM: TGI (RXF 393 renal)
76.3 µM: TGI (NCI-H522 lung)
57.2 µM: TGI (SK-MEL-28 melanoma)
